Screening results as filed in PubChem.
An excerpt weighted towards active compounds, which were near 1.2% of everything screened.
miR-122 sensor: inhibitors of miR-122 in Huh7 cells; activation (reporter increase), % at 12.5 µM; AID 602342; Huh7 miR-122 Renilla luciferase sensor, 48 h; neutral wells = 0, positive control = 100; 340,000 tested, 0.3% active;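 active = mean replicate activation score at least 90 and every replicate individually at or above 90; inconclusive = only one of the two criteria met; inactive = neither criterion met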;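 also: higher luciferase means less miR-122 activity so hits act as miR-122 inhibitors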
UUG fidelity: modulators of start codon recognition fidelity in yeast; S. cerevisiae UUG-firefly luciferase reporter, luminescence/redox ratio; activity score, % at 18.7 µM; hit rate 0.13% among 350,000; AID 602363;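 active = replicate mean at a twofold rise or more, about +100% in these data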;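 note: firefly luciferase made from a UUG start codon reports start codon fidelity; reporter light over untreated wells divided by growth signal over untreated wells; some hits fall short of that in this replicate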
C2C12 statin: suppression of simvastatin myotoxicity; C2C12 myotubes + simvastatin, ATP luminescence, 48 h; scaled: DMSO 0, geranylgeraniol control 100; rescue of ATP level, % at 7.49 µM; 330,000 tested, 0.78% active;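 active = mean ATP rescue above about 67%, or every replicate alone reaching that limit, limit read from the data, passing the limit was not always enough; inconclusive = no clear call, values can overlap the other calls; inactive = mean under the limit and some replicate under it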;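 also: myotubes were challenged with 10 µM simvastatin during compound exposure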
Cneo AK release: causes C. neoformans cell lysis. adenylate kinase release luminescence, 4 h; normalised: neutral wells 0, clomiphene wells 100. lysis activity, % at 15 µM. 360,000 tested, 0.2% active. AID 651654;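 active = mean lysis activity across replicates of at least 80%, whatever share of replicates individually reach that level; inactive = mean lysis activity below 80%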
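Signal: Adenylate kinase release luminescence | Assay system: Log-phase Cryptococcus neoformans yeast cells | Input: Cells at 5 × 10^6 per mL | Buffer or medium: Fresh YPD growth medium | Compound: Single dose | Schedule: Static 4 h at 37 °C with compound, 1 h detection | Controls: Clomiphene | Read-out: Luminescence rise reflecting yeast cell lysis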
Active calls of the source: *; [ ] = dose if it differs, or a comment.

Results for Cc1ccc(S(=O)(=O)Nc2ccc3c(c2)C(=O)N([C@H](C)CO)C[C@@H](C)[C@H](CN(C)Cc2ccc(Cl)c(Cl)c2)O3)cc1 ?
miR-122 sensor: -3[16.7 µM]; UUG fidelity: 9; C2C12 statin: 75*; Cneo AK release: 13

Results for Cc1ccc(S(=O)(=O)Nc2ccc3c(c2)C(=O)N([C@@H](C)CO)C[C@@H](C)[C@H](CN(C)Cc2ccc(Cl)c(Cl)c2)O3)cc1 ?
miR-122 sensor: 0[16.7 µM]; UUG fidelity: 10; C2C12 statin: 95*; Cneo AK release: 32

How did COC(=O)NNC(=O)COc1ccc(Cl)cc1 do in these assays?
miR-122 sensor: -5; UUG fidelity: -20; C2C12 statin: 94*; Cneo AK release: -3

Results for COc1ccc(C(=O)NNC(=O)COc2ccc(Cl)cc2)c(OC)c1 ?
miR-122 sensor: 0; UUG fidelity: -16; C2C12 statin: 5; Cneo AK release: 0

What do the screens show for `CCOc1cc(N2CCOCC2)c(OCC)cc1NC(=O)CN1C(=O)NC2(CCc3ccccc32)C1=O` (centres undefined)?
miR-122 sensor: -12; UUG fidelity: 23; C2C12 statin: 89*; Cneo AK release: -2

How did CCOc1cc(N2CCOCC2)c(OCC)cc1NC(=O)CN1C(=O)NC2(CCCCCCC2)C1=O do in these assays?
miR-122 sensor: 5; UUG fidelity: 2; C2C12 statin: -6; Cneo AK release: -1

Results for CN(C)CCCNC(=O)[C@H]1[C@H](CO)[C@H]2Cn3c(ccc(C4=CCCC4)c3=O)[C@H]2N1CCC(F)(F)F ?
C2C12 statin: -4; Cneo AK release: 2

Results for O=C(/C=C/c1ccc2c(c1)OCO2)NCCSCc1cccc(Cl)c1 ?
miR-122 sensor: 115*; UUG fidelity: -6; Cneo AK release: 0

Results for O=C(/C=C/c1ccc2c(c1)OCO2)NCCSCc1ccc(Cl)cc1Cl ?
miR-122 sensor: -1; UUG fidelity: 0; C2C12 statin: 35; Cneo AK release: 2

What do the screens show for `O=C(CSc1ccc(Cl)cc1)OCc1nnc(-c2ccccc2)o1`?
miR-122 sensor: -3; UUG fidelity: -11; C2C12 statin: 69*; Cneo AK release: 0

Quoted at random: three records from the list
Results for O=C(/C=C/c1ccc2c(c1)OCO2)NCCSCc1ccc(Cl)cc1Cl ?
miR-122 sensor: -1; UUG fidelity: 0; C2C12 statin: 35; Cneo AK release: 2

Results for COc1ccc(C(=O)NNC(=O)COc2ccc(Cl)cc2)c(OC)c1 ?
miR-122 sensor: 0; UUG fidelity: -16; C2C12 statin: 5; Cneo AK release: 0

What do the screens show for `O=C(CSc1ccc(Cl)cc1)OCc1nnc(-c2ccccc2)o1`?
miR-122 sensor: -3; UUG fidelity: -11; C2C12 statin: 69*; Cneo AK release: 0

Next section:
What do the screens show for `COc1cc(CCC(=O)OCc2ccccc2C#N)cc(OC)c1OC`?
miR-122 sensor: -4; UUG fidelity: -13; C2C12 statin: 0; Cneo AK release: 6

What do the screens show for `COc1cc(CCC(=O)OCc2nnc(-c3ccccc3)o2)cc(OC)c1OC`?
miR-122 sensor: 1; UUG fidelity: -2; C2C12 statin: 104*; Cneo AK release: -2

What do the screens show for `C[C@@H]1CN([C@H](C)CO)C(=O)c2cc(NC(=O)Nc3cccc4ccccc34)ccc2O[C@@H](C)CCCCO[C@@H]1CN(C)Cc1ccc2c(c1)OCO2`?
miR-122 sensor: -34[16.7 µM]; UUG fidelity: 33; C2C12 statin: inconclusive; Cneo AK release: 84*

What do the screens show for `C[C@H]1CCCCO[C@H](CN(C)C(=O)Nc2cccc3ccccc23)[C@@H](C)CN([C@@H](C)CO)C(=O)c2cc(NC(=O)Nc3ccc4c(c3)OCO4)ccc2O1`?
miR-122 sensor: -5[16.7 µM]; UUG fidelity: -15; C2C12 statin: 66*; Cneo AK release: -2

How did C[C@H](CO)N1C[C@H](C)[C@@H](CN(C)C(=O)Nc2ccc3c(c2)OCO3)OCCCC[C@H](C)Oc2ccc(NC(=O)Nc3cccc4ccccc34)cc2C1=O do in these assays?
miR-122 sensor: 8[16.7 µM]; UUG fidelity: -7; C2C12 statin: 19; Cneo AK release: -1

Results for C[C@@H]1CCCCO[C@@H](CN(C)C(=O)Nc2ccc3c(c2)OCO3)[C@@H](C)CN([C@H](C)CO)C(=O)c2cc(NC(=O)Nc3cccc4ccccc34)ccc2O1 ?
miR-122 sensor: 31[16.7 µM]; UUG fidelity: 10; C2C12 statin: 0; Cneo AK release: 105*

What do the screens show for `CO[C@@H]1CN(C)C(=O)c2ccc(NC(=O)c3cccc(F)c3)cc2OC[C@@H](C)N(C(C)=O)C[C@@H]1C`?
miR-122 sensor: 12[16.7 µM]; UUG fidelity: 4; C2C12 statin: -4; Cneo AK release: 1

How did C[C@H]1CCCCO[C@H](CN(C)C(=O)Nc2cccc3ccccc23)[C@@H](C)CN([C@@H](C)CO)C(=O)c2cc(NC(=O)C3CCCCC3)ccc2O1 do in these assays?
miR-122 sensor: -11[16.7 µM]; UUG fidelity: -7; Cneo AK release: 50

How did Cc1ccccc1S(=O)(=O)N1C[C@H](O)COC[C@H]2O[C@@H](CC(=O)NCc3ccccc3Cl)CC[C@@H]21 do in these assays?
miR-122 sensor: -6[16.7 µM]; UUG fidelity: 13; C2C12 statin: 14; Cneo AK release: 1

How did COc1ccc(S(=O)(=O)Nc2ccc3c(c2)CC(=O)N([C@@H](C)CO)C[C@H](C)[C@H](CN(C)CC2CC2)O3)cc1 do in these assays?
miR-122 sensor: 5[16.7 µM]; C2C12 statin: -11

What do the screens show for `CC(=O)c1ccc(OCC(O)CN2CCN(CC(O)COc3ccc(C(C)=O)cc3)CC2)cc1` (centres undefined)?
miR-122 sensor: -5; UUG fidelity: -4; C2C12 statin: 109*; Cneo AK release: -1

Results for CC(=O)N(C)c1ccc(OCC(O)COc2ccc(N(C)C(C)=O)cc2)cc1 ?
miR-122 sensor: 2; UUG fidelity: 1; C2C12 statin: 125*; Cneo AK release: 0

Results for CO[C@@H]1CN(C)C(=O)c2ccc(NS(=O)(=O)c3cccc(C)c3)cc2OC[C@H](C)NC[C@H]1C ?
miR-122 sensor: -4[16.7 µM]; C2C12 statin: 4

How did CCCNC(=O)N(C)C[C@@H]1Oc2ncc(C#CC3CCCCC3)cc2C(=O)N([C@H](C)CO)C[C@@H]1C do in these assays?
miR-122 sensor: 48[16.7 µM]; UUG fidelity: 51; C2C12 statin: -2; Cneo AK release: 106*

How did C/C=C/c1cnc2c(c1)C(=O)N([C@@H](C)CO)C[C@@H](C)[C@@H](CN(C)C(=O)C1CCCCC1)O2 do in these assays?
miR-122 sensor: 1[16.7 µM]; UUG fidelity: -4; C2C12 statin: 24; Cneo AK release: 105*

How did CCCNC(=O)N(C)C[C@@H]1Oc2ncc(C#CC3CCCCC3)cc2C(=O)N([C@H](C)CO)C[C@H]1C do in these assays?
miR-122 sensor: -1[16.7 µM]; UUG fidelity: 24; C2C12 statin: -2; Cneo AK release: 2

How did CCCNC(=O)N(C)C[C@@H]1Oc2ncc(C#CC3CCCCC3)cc2C(=O)N([C@@H](C)CO)C[C@@H]1C do in these assays?
miR-122 sensor: 15[16.7 µM]; UUG fidelity: 9; C2C12 statin: -4; Cneo AK release: -1

Results for CCCNC(=O)N(C)C[C@H]1Oc2ncc(C#CC3CCCCC3)cc2C(=O)N([C@@H](C)CO)C[C@@H]1C ?
miR-122 sensor: 10[16.7 µM]; UUG fidelity: 38; C2C12 statin: 7; Cneo AK release: 109*

Results for C/C=C/c1cnc2c(c1)C(=O)N([C@@H](C)CO)C[C@H](C)[C@@H](CN(C)C(=O)C1CCCCC1)O2 ?
miR-122 sensor: 0[16.7 µM]; UUG fidelity: 3; C2C12 statin: 10; Cneo AK release: 0
